Experimental data from patent US8926083B2, “Polymerizable ink composition, ink cartridge, and inkjet printer” (Ricoh Company, Ltd., priority 2012, dated 2015).

Experiment: Skin sensitization test according to Local Lymph Node Assay (LLNA) method, Stimulation Index (SI)
Conditions: LLNA method (OECD test guideline 429), SI less than 3 = no skin sensitization problem
For “Ethylene oxide-modified bisphenol A diacrylate”, the SI value was “Ethylene oxide-modified bisphenol A diacrylate (SI value = 1.2):”.
In the case of “Polyethoxylated tetramethylol methane tetraacrylate”, the SI value is reported as “KOGYO SEIYAKU CO., LTD., SI Value = 1.7):”.
In the case of “Propylene oxide modified neopentyl glycol diacrylate”, the SI value is reported as “SI value: 3.7):”.
